Results published in ChEMBL document CHEMBL4251753, “Discovery of Potent 2-Aryl-6,7-dihydro-5 H-pyrrolo[1,2- a]imidazoles as WDR5-WIN-Site Inhibitors Using Fragment-Based Methods and Structure-Based Design” (J Med Chem, 2018).

Experiment: Apparent permeability across apical to basolateral side in MDCK cells expressing MDR1
Format: ADME, cell-based, Canis lupus familiaris
Conditions: dog

Which Papp does the source give for `COc1cc(C(=O)N[C@@H]2CCc3ccc(-c4cn5c(n4)CCC5)cc32)cc(OC)c1C` here?
Its Papp is 9.6 ×10⁻⁶ cm/s.
